How the values were obtained:
[1] = tested on: HSP90; assay: HSP90 immunofluorescence staining of JFH-1 cells; type: cell-based, human
From the text: Human liver biopsy tissue samples were obtained from chronic HCV or HBV patients and autoimmune hepatitis (AIH) patients as a control group, under the supervision of the Institutional Review Board (IRB) of Soonchunhyang University Hospital in Bucheon (2014-12-034) and Seoul National University Hospital (1410-136-621). To evaluate the HSP90 expression in liver cells and JFH-1 cells, liver tissue or JFH-1 cells were stained with anti-HSP90 antibodies (Cell Signaling Technology). To visualize the tissue or cells, Alexa Fluor 594-conjugated anti-rabbit IgG (Invitrogen) was used. For counterstaining of the cell nucleus, 4′,6-diamino-2-phenylindole (DAPI, Sigma-Aldrich) was used. Images were obtained and processed using a confocal microscope system A1 (Nikon, Minatoku, Tokyo, Japan) and an NIS-elements 4.20 viewer (Nikon).

[2] = tested on: immune cells; assay: Distribution of immune cells (FACS) in whole HBV W4P genome-transgenic mice; type: in vivo; details: week 4
Description: PEP1 is an HLA Class II-binding peptide derived from telomerase, and a 16-amino acid peptide triggering cytotoxic T-cell and helper T-cell immune responses. Therefore, to observe a change in the distribution of renal immune cells by the PEP1 peptide, transgenic mice were prepared by injecting the whole HBV W4P variant genome, on week 4, the whole blood was collected from the mice, and immune cells were isolated from the kidneys of the mice and then stained with lymphocyte markers (B cells (CD19B), CD4, CD8, NK1.1 cells) and myeloid cell markers (DC (CD11c), a macrophage marker (F4/80), a neutrophil marker (Ly-6G), a monocyte marker (Gr1)) according to an extracellular cell surface staining method for FACS analysis.

[3] = tested on: HBV; assay: Virion production (real-time PCR of HBV DNA) in W4P-transfected HepG2 cell line; type: cell-based, hepatitis B virus
Description: To observe the potential for virion proliferation of whole HBV containing W4P, virion DNA was extracted from the entire supernatant while the medium was changed every 24 hours by the above-described method, and subjected to real-time quantitative PCR using a Quantitech SYBR Green Master-Mix kit (Qiagen). The entire supernatant was centrifuged using an ultracentrifuge equipped with an SW28 swing rotor at 20,000 rpm for 2 hours to precipitate the virus, and the precipitated viral pellets were suspended with 200 μl of sterilized DW. To extract virion DNA, the viral cells were treated with 100 μg/ml RNase A, 100 μl of a lysis buffer (0.25% SDS, 0.25M Tris, 0.25M EDTA), and 500 μg/ml of proteinase K for 2 hours at 37° C. Afterward, DNA was extracted by a phenol:chloroform extraction method. To see the capacity for viral proliferation, real-time PCR primers SF-Real (5′-[…]-3′, SEQ ID NO: 9) and SR-Real (5′-[…]-3′, SEQ ID NO: 10) targeting small surface area regions of HBV were designed. 12.5 μl IQ SYBR Green Supermix (Biorad, Calif., USA), 1.25 μl SF-Real primer, 1.25 μl SR-Real primer, 9 μl distilled water, and 1 μl cDNA were added to a 96-well plate. Real-time PCR was performed at 40 cycles of 5 min at 95° C., 15 sec at 94° C., and 15 sec at 60° C. using the Exicycler™ 96 Real-Time Quantitative Thermal Block System (Bioneer Co., Korea), and the temperature was increased from 53° C. to 90° C. by modulating to 0 sec at 95° C., 30 sec at 53° C. and modulating by 0.1° C. per second to analyze a melting curve.
(§1) To observe the virion production in the supernatant after the inhibition of HBsAg secretion by the PEP1 peptide was observed, virions were collected from the supernatant obtained by the above-described method using PEG 6000, and HBV DNA was obtained using a virus DNA prep kit (Intron, Korea), and then quantified by real-time PCR.
In the previous experiment, to observe the virion production according to peptide concentration in the supernatant, real-time PCR was performed by harvesting virions from the supernatant.

[4] = tested on: HBV; assay: HBsAg ELISA in whole HBV W4P genome-transfected Huh7.5 cell line; type: cell-based, hepatitis B virus; details: Huh7.5, 10 μM, 48 hours
Description: To observe virion production of entire HBV containing W4P by PEP1, 2×10^6 Huh7 cells were seeded into a 100 mm dish, and normal total HVC and HBV containing W4P were co-transiently transfected with a pCMV-β-gal vector including β-galactosidase, and incubated for 3 days. While changing the medium every 24 hours, the supernatant (sup) was collected. To analyze the supernatant, ELISA was performed according to experimental instructions using a generalized Bioelisa HBsAg color ELISA kit (BIOKIT S.A., Spain) and an HBeAg ELISA kit (BIOKIT S.A., Spain) that can detect a Hepatitis B surface antigen (HBsAg) and a Hepatitis B envelope antigen (HBeAg). 100 μl of each of the collected supernatants was added to each well, and reacted at 37° C. for 1 hour. 300 μl of a washing solution to each well for washing three times. 300 μl of a washing solution was added to the diluted conjugate solution for washing three times. 20 μl/ml of TMB was added to a substrate solution, and then 100 μl of the mixture was added to each well of a 96-well plate to allow a reaction for 30 minutes while light was blocked at room temperature. 100 μl of a stop solution was added to stop the reaction. The absorbance was read using an ELISA reader (Beckman, USA) at 450 nm. […]

[5] = tested on: HBV; assay: Virion production (real-time PCR of HBV DNA) in W4P-transfected Huh7.5 cell line; type: cell-based, hepatitis B virus; details: Huh7.5, 10 μM, 48 hours
Description: To observe the potential for virion proliferation of whole HBV containing W4P, virion DNA was extracted from the entire supernatant while the medium was changed every 24 hours by the above-described method, and subjected to real-time quantitative PCR using a Quantitech SYBR Green Master-Mix kit (Qiagen). The entire supernatant was centrifuged using an ultracentrifuge equipped with an SW28 swing rotor at 20,000 rpm for 2 hours to precipitate the virus, and the precipitated viral pellets were suspended with 200 μl of sterilized DW. […] Real-time PCR was performed at 40 cycles of 5 min at 95° C., 15 sec at 94° C., and 15 sec at 60° C. using the Exicycler™ 96 Real-Time Quantitative Thermal Block System (Bioneer Co., Korea), and the temperature was increased from 53° C. to 90° C. by modulating to 0 sec at 95° C., 30 sec at 53° C. and modulating by 0.1° C. per second to analyze a melting curve.
as §1

CC[C@H](C)[C@H](NC(=O)[C@H](Cc1ccccc1)NC(=O)[C@H](CCCNC(=N)N)NC(=O)[C@H](CC(C)C)NC(=O)[C@H](CCCNC(=N)N)NC(=O)[C@H](CO)NC(=O)[C@@H](NC(=O)[C@H](CC(C)C)NC(=O)[C@H](CC(C)C)NC(=O)[C@H](C)NC(=O)[C@@H]1CCCN1C(=O)[C@H](CCCNC(=N)N)NC(=O)[C@H](C)NC(=O)[C@@H](N)CCC(=O)O)[C@@H](C)O)C(=O)N1CCC[C@H]1C(=O)N[C@@H](CCCCN)C(=O)O [PEP1, EARPALLTSRLRFIPK]
iHSP90 in JFH-1 cells [1]: reduced iHSP90
HSP90 expression vs control group (PBS) ([1]; PEP1 10 μM, 2 hours (FIG. 21)): lower HSP90 expression than the control group
Cell distribution of myeloid-derived cells (DCs, macrophages, neutrophils, monocytes) [2]: no effect on cell distribution
Distribution of lymphocytes (B cells, CD4, CD8, NK1.1 cells) [2]: no significant difference
Virions produced in the supernatant ([3]; HepG2, 10 μM, 48 hours): inhibitory effect
Virion production, reduction effect ([3]; HepG2, at 10 μM): approximately 48%
Virion production ([3]; HepG2, high concentration of 100): not effective
Virion production ([3]; HepG2, low concentration of 0.01 μM): not effective
Intracellular and extracellular HBsAg levels [4]: neither an intracellular nor extracellular inhibitory effect was observed
Virion secretion [5]: no effect on virion secretion
